{"source": "patent US10925981B2", "about": "“Hexa-lactoside-triazanonane triacetic acid (NOTA) derivative, method for radiolabeling hexa-lactoside positron emission tomography (PET) imaging agent for liver receptor with Ga-68, and hexa-lactoside PET imaging agent for liver receptor” (Institute of Nuclear Energy Research, Atomic Energy …, priority 2018, dated 2021)", "origin": "cited, not measured here"}
{"substance": "Tc-99m diethylenetriamine pentaacetic acid-galactosamine-albumin [Tc-99m DTPA-GSA]", "values": [{"measurement": "time the labeled product remains stable in serum", "value": "≥ 4", "unit": "h"}]}
